## Binding of CDR-mutated scFvs to a peptide of the spike HR2 region

Target: peptide PDVDLGDISGINAS, taken from heptad repeat 2 (HR2) of SARS-CoV-2 spike.

The variants keep the heavy chain, the linker and the frameworks of Ab-95 (scFv order VH, a (GGGGS)3 linker, VL).
VH: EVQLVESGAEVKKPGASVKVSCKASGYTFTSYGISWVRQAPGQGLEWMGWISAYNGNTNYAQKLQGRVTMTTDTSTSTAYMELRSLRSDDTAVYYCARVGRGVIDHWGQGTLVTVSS
VL: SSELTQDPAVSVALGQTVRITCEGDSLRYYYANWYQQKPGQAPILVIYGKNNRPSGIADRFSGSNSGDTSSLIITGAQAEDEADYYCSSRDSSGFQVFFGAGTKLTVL

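The parent was found by panning a naive human phage display library on the peptide. Variants in AAYL52 differ from the parent at up to three CDR positions; double and triple changes were sampled at random. In AlphaSeq, yeast of one mating type display the scFv and yeast of the other type display the target. The frequency of each diploid, read from paired DNA barcodes, reflects how well the two displayed proteins bind. Scores were corrected for input abundance and mapped to Kd with protein pairs of known affinity run in the same pool. The assay was run in three technical replicates.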

The parent's light chain CDRs are EGDSLRYYYAN, GKNNRPS, SSRDSSGFQVF; each variant's own CDRs replace them letter for letter. Numbers give log10(Kd / nM), so 0 is 1 nM and 3 is 1 µM. Smaller is tighter. An entry "nd" has no value in the source: the pair was not observed among the diploids in that replicate. This suggests poor binding but is not conclusive. As a blank, each scFv also met three strains without target: over library AAYL52, 28% of these pairings were detected, typically at 3.91 and seldom below 2.90. The control count says in how many pairings with the empty strains this scFv gave a signal, with their mean in brackets. In this assay the parent's reference entry averaged 2.31; its copy inside this library read 2.25.

log10 Kd (nM) by replicate | control signals | CDR-L1 | CDR-L2 | CDR-L3
2.19 2.40 2.85 | 5/9 (4.29) | EGDSLRYYGAN | GKNNRPS | SDEDSSGFQVF
3.26 4.34 nd | 6/9 (4.49) | EGDSLRYYYAN | GKNNQPS | SSRDPSGFQVP
nd 4.13 4.03 | 2/9 (3.48) | EGDSLRYYDAN | GKNNRPS | HSRDSSGMQVF
nd nd nd | 1/9 (3.97) | EGDSLRYYYAN | GKNNRPS | SSRCSSGFYVK
nd 2.51 4.16 | 4/9 (3.32) | ECDSLRYYYAN | GKNNRPS | SSRGSMGFQVF
2.18 2.73 1.82 | 3/9 (3.85) | EGDSLRYYYAN | GKNNRPS | SSRFSNHFQVF
3.65 2.81 3.98 | 6/9 (4.19) | EGDSLRYWYAN | GKANRPS | SSRDSSGFQVF
2.41 2.23 2.41 | 2/9 (4.16) | EGDSLGRYYAN | GKNNRPS | SSRDSSGFQVQ
nd 4.75 nd | 2/9 (4.18) | LGDSLRYWYAR | GKNNRPS | SSRDSSGFQVF
1.55 1.32 0.81 | 3/9 (3.78) | RGDSARYYYAN | GKNNRPA | SSRDSSGFQVF
4.80 3.96 nd | 1/9 (4.29) | NGDSLRYYYAN | GKNNRPS | SSADSCGFQVF
3.49 4.73 4.59 | 6/9 (4.23) | ETDTLRQYYAN | GKNNRPS | SSRDSSGFQVF
2.21 2.19 1.87 | 3/9 (3.92) | ELDSLRYDSAN | GKNNRPS | SSRDSSGFQVF
nd nd nd | 3/9 (3.82) | EGDSSRYYYAG | GKNNRPS | SSRDSSGFQVI
1.25 1.05 0.71 | 4/9 (4.07) | EGDSLRDHYAN | GKNNRPS | SSRDSKGFQVF
nd nd nd | 3/9 (3.49) | EGDSLRTYYAK | GKNNRPS | SYRDSSGFQVF
nd nd nd | 0/9 | EGDSLRRYYAN | GKNNRPS | SSRDSSGCQVM
3.82 nd nd | 4/9 (4.26) | EIDSLRMYYAN | GKCNRPS | SSRDSSGFQVF
2.08 2.13 1.77 | 2/9 (3.95) | EGDSLRYYYAN | GKNNRPS | SSGKSTGFQVF
nd nd nd | 3/9 (3.93) | EGDSLRYYYAN | CKYNRPS | SSRDSSGFQKF
3.31 nd 3.67 | 2/9 (4.22) | EDDSLRQYYAN | GKNNRPS | SSRDSSGFQGF
nd nd nd | 1/9 (3.06) | EGDSRRYTYAN | GKHNRPS | SSRDSSGFQVF
3.79 3.46 3.46 | 2/9 (3.71) | EGDCLRYYPYN | GKNNRPS | SSRDSSGFQVF
3.21 3.24 3.02 | 1/9 (3.28) | EGDSLCGYYAN | GKNNRPS | SSRDSKGFQVF
2.01 2.00 1.41 | 5/9 (4.24) | EGDSLRYYYAN | GDNNRPS | SSRDWSSFQVF
2.21 1.98 3.13 | 1/9 (3.34) | EGSSLRYYIAN | GKNNRPS | SSRDSSGFQVF
2.85 3.06 4.58 | 2/9 (4.44) | EGDSLRYYYHN | GNNNRPS | SSRDSSGFQIF
3.44 2.97 2.26 | 6/9 (4.04) | EGDALWYYYAN | GKNNRPS | SSRDSSGFQVH
nd 4.36 3.04 | 3/9 (4.09) | EGDELRYYYAI | GKNNRPS | SSRDSSGFQHF
1.98 1.87 1.59 | 0/9 | EGDSLRKYYAN | GSNNRPS | SSRDSSGFQNF
2.63 2.73 3.13 | 1/9 (3.17) | EGDMLRYVYAN | GKNNRPS | SSRDSSGFQVC
3.65 nd 2.91 | 2/9 (3.22) | EGDSLRYYYAN | GENNRPS | SSRDSWGFVVF
2.35 2.55 2.59 | 1/9 (3.26) | EGDSLRMDYAN | GKNGRPS | SSRDSSGFQVF
4.73 4.90 3.95 | 5/9 (4.44) | EGDSLRYYYCN | GKPNRPS | SSRDSSGCQVF
nd 4.50 4.52 | 0/9 | EGDSLYYYYAN | GKNNRPS | SSTDSSGFQVH
nd nd nd | 4/9 (4.35) | EGDSLVYCYAN | GKNNRPR | SSRDSSGFQVF
2.50 2.27 1.89 | 3/9 (4.57) | EGDSLRYYYAN | GKNNRPS | SSRDSDGFQKF
2.48 2.02 2.14 | 1/9 (2.91) | EGNSLRYYYAN | GTNNRPS | SSRDESGFQVF
3.47 3.95 4.58 | 4/9 (3.90) | EGMSLRYYYAC | GKNNRPS | YSRDSSGFQVF

The first 4 entries again:

{"CDR-L1": "EGDSLRYYGAN", "CDR-L2": "GKNNRPS", "CDR-L3": "SDEDSSGFQVF", "log10 Kd (nM) by replicate": "2.19 2.40 2.85", "control signals": "5/9 (4.29)"}
{"CDR-L1": "EGDSLRYYYAN", "CDR-L2": "GKNNQPS", "CDR-L3": "SSRDPSGFQVP", "log10 Kd (nM) by replicate": "3.26 4.34 nd", "control signals": "6/9 (4.49)"}
{"CDR-L1": "EGDSLRYYDAN", "CDR-L2": "GKNNRPS", "CDR-L3": "HSRDSSGMQVF", "log10 Kd (nM) by replicate": "nd 4.13 4.03", "control signals": "2/9 (3.48)"}
{"CDR-L1": "EGDSLRYYYAN", "CDR-L2": "GKNNRPS", "CDR-L3": "SSRCSSGFYVK", "log10 Kd (nM) by replicate": "nd nd nd", "control signals": "1/9 (3.97)"}

Reference: Engelhart et al. 2022, doi:10.1038/s41597-022-01779-4. File: FLAb, binding data.